Assay results published in PMC9478952.

Tests used:
[1] = test system: MOR KO mice injected with AAV-vector, AAV-WT, and AAV-Y7.43A; test: Basal pain threshold after 7 days of repeated dosing (hot plate); conditions: twice daily dosing for 7 days; opioid-induced hyperalgesia
[2] = clinical studies; ref Hertz, 2018; cited from earlier work

SMILES	basal pain thresholds on days 3, 5, and 7 compared with day 1 (in words) [1]	therapeutic window in humans compared with morphine (in words) [2]
CN1CC[C@]23c4c5ccc(O)c4O[C@H]2[C@@H](O)C=C[C@H]3[C@H]1C5.Cl	significantly decreased	–
COc1ccsc1CNCC[C@@]1(c2ccccn2)CCOC2(CCCC2)C1	–	failed to demonstrate a significantly broader therapeutic window
